In US20100137222A1, “Basic Peptides and Their Use as Combined Antibacterial-Antifungine Agents” (NOVABIOTICS LIMITED, priority 2007, published 2010):
≈ marks a conversion by molar mass, not a printed value.

Key:
P. acnes DSM1897 = type: cell-based, Propionibacterium acnes; conditions: Table 2
Experimental: Broth Dilution Antibacterial Susceptibility Testing
The sensitivity of relevant bacterial strains to peptides was determined using Clinical Laboratory Standard Institute (CLSI; formerly NCCLS) Approved Standards. Bacterial susceptibility was tested using “Methods for Dilution Antimicrobial Susceptibility Tests for Bacteria That Grow […]; Approved Standard—Seventh Edition M7-A7”

M. furfur DSM6170 = type: cell-based, Malassezia furfur
Experimental: Broth Dilution Antifungal Susceptibility Testing
The sensitivity of relevant fungal strains to peptides was determined using Clinical Laboratory Standard Institute (CLSI; formerly NCCLS) Approved Standards. Yeast susceptibility was tested using “Reference Method for Broth Dilution Antifungal Susceptibility Testing of Yeasts; Approved Standard—Second Edition M27-A”.

For `N=C(N)NCCC[C@H](NC(=O)[C@H](CCCNC(=N)N)NC(=O)[C@H](CCCNC(=N)N)NC(=O)[C@H](CCCNC(=N)N)NC(=O)[C@H](CCCNC(=N)N)NC(=O)[C@H](CCCNC(=N)N)NC(=O)[C@H](CCCNC(=N)N)NC(=O)[C@H](CCCNC(=N)N)NC(=O)[C@@H](N)CCCNC(=N)N)C(=O)O` [NP316, RRRRRRRRR], the “Antimicrobial Activity (MIC) P. acnes DSM1897” value (P. acnes DSM1897) was 31.3 µM, the “Antimicrobial Activity (MIC) M. furfur DSM6170” value (M. furfur DSM6170; Table 2) was 125 µM and the “MIC against Malassezia furfur DSM6170” value (M. furfur DSM6170; Table 3, unstarred values) was 125 µM (≈ 178 µg/mL).
